# Assay results reported in publication PMC6954720, “Discovery of retinoic acid receptor agonists as proliferators of cardiac progenitor cells through a phenotypic screening approach” (Stem Cells Translational Medicine, 2019).
# Chains of the proteins cited; added tags and fusions are not shown. Residues count along the entry.
# UniProt P13631, 185-419 limits assumed: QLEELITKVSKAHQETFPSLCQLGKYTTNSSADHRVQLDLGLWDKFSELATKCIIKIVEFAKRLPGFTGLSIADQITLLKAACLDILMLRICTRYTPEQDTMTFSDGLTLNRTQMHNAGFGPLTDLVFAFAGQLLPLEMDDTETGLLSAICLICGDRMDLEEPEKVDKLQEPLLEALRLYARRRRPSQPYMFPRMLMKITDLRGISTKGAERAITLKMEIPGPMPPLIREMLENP
# Target: RARG (gamma) ligand binding domain (Homo sapiens, UniProt P13631)
# Test: RAR LBD-SRC1-2 coactivator peptide recruitment assay, agonist format, RARG
# Format: biochemical
# Description: RAR ligand binding domain (LBD)‐SRC1‐2 coactivator peptide (NCOA1_677‐700 biotinylated) recruitment assays were established for the three RAR isotypes RARA (alpha), RARB (beta), and RARG (gamma) to determine relative potencies. […] A total of 0.4 μL of a fixed concentration range of test ligands dissolved in dimethyl sulphoxide (DMSO) was added to assay plates using an acoustic liquid dispenser. […] The raw data were transformed to % effect using the equation: compound % effect = 100 × [(X − min)/(max − min)], where X represents the effect in the presence of test compound and max and min are the effects in presence of the maximum and minimum controls, respectively.
# The data were plotted to generate concentration‐response profiles and the concentration‐response curves were fit to the data using the four‐parameter logistic smart fit method in the Genedata Screener software (Genedata, Inc).
smiles,measurement,value
"CC1=C(/C=C/C(C)=C/C=C/C(C)=C/C(=O)O)C(C)(C)CCC1 [ATRA, all‐trans retinoic acid]",RARγ pEC50 (% top effect): % top effect,104%
